Measurements: US7459277B2, “Mammalian T1R3 sweet taste receptors” (The Regents of the University of California, priority 2003, dated 2008)

Tested on: mice expressing RASSL (modified k-opioid receptor) in T1R2-cells
Conditions: induced, un-induced and T1R2-rtTA-only control groups

OC[C@H]1O[C@@](CO)(O[C@H]2O[C@H](CO)[C@@H](O)[C@H](O)[C@H]2O)[C@@H](O)[C@@H]1O [sucrose]
behavioral response: normal responses
